Assay outcomes as filed in PubChem BioAssay.
Only some compounds are listed: those with a hit (about 13% of all), similar ones and a draw of the others.
miR-21 reporter: miR-21 reporter, rising signal | HeLa miR-21 FLuc reporter, luciferase, 48 h | Potency, µM (top dose mostly 38.3 µM) | 340,000 tested, under 10 active | AID 2288; active = well fitted rising curve with a large enough effect; inconclusive = small, poorly fitted or top-dose-only effect; inactive = no such curve, though single readings can be large or run the other way;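 further: miR-21 action dims this reporter so a rising signal means less miR-21 action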
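Compounds were titrated across several concentrations (up to approximately 40 uM) and incubated 48 hours with HeLa miR-21-FLuc reporter cells (miR-21 target sequence downstream of FLuc, endogenous miR-21). Readout was firefly luciferase luminescence after lytic detection reagent.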
ALDH1A1 block: ALDH1A1 (human) enzyme inhibition; P00352; 220,000 compounds, 7.3% hits; Potency, µM (series often up to 75.3 µM), hits mostly inhibitors; Purified ALDH1A1, NADH fluorescence, propionaldehyde substrate; active = well fitted inhibition curve with a large enough effect, not every such curve was filed as active; inconclusive = small, poorly fitted or top-dose-only effect, or another doubt; inactive = no such curve, though single readings can be large or run the other way
Sfp inh: inhibitors of Bacillus subtilis Sfp phosphopantetheinyl transferase; 310,000 compounds, 3.5% hits; Q9F4F7; Biochemical Sfp PPTase activity, qHTS; AID 1490; Potency, µM, hits mostly inhibitors;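 note: the enzyme is Sfp with the accession as filed and its product quenches rhodamine fluorescence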
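Sfp 15 nM + cpd, 15 min RT; start w/ rhodamine-CoA 5 uM, BHQ-2-YbbR 12.5 uM (final); 50 mM Hepes pH 7.6, 10 mM MgCl2, 0.01% NP-40, 0.01% BSA; read 525/598 nm at 0 and 30 min.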
JMJD2E inh: JMJD2E (human) inhibition; B2RXH2; JMJD2E catalytic domain, FDH-coupled NADH fluorescence (FDH is formaldehyde dehydrogenase); Potency, µM (series often up to 57.1 µM), usual class: inhibitors; 230,000 compounds, 1.6% hits; active = well fitted inhibition curve with a large enough effect, not every such curve was filed as active; inconclusive = small, poorly fitted or top-dose-only effect, or another doubt; inactive = no such curve, though single readings can be large or run the other way; note: nearly all actives have a fitted effect of over 50% in size
G9a block: G9a (human) methyltransferase inhibition; Q96KQ7; G9a H3K9 monomethylation, AlphaScreen, 2 h; Potency, µM (top dose mostly 102 µM), actives largely listed as inhibitors; 350,000 compounds, 8.8% hits; AID 504332; note: nearly all actives have a fitted effect of over 75% in size
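AlphaScreen read-out: biotin-H3K9 peptide (500 nM) methylation by 20 nM enzyme with 20 uM SAM, 2 h at room temperature after 15 min compound preincubation; anti-monomethyl H3K9 antibody plus donor/acceptor beads, 10 min dark.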
Lamin A splicing: LMNA splicing modulation; Potency, µM (series often up to 46.1 µM), most hits filed as inhibitors; HeLa LMNA splicing GFP/RFP minigene ratio, 48 h; AID 1487; 200,000 compounds, 0.01% hits; active = well fitted inhibition curve with a large enough effect in the signal ratio, with a control signal flat, not every such curve was filed as active; inconclusive = small, poorly fitted or top-dose-only effect, or effect the other way, or a change in a side signal; the % refers to the signal ratio
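S3 HeLa cells stably expressing lamin A-EGFP splicing minigene plus DsRed2, 600 cells/well, 48 h compound exposure at 37C. Laser-scanning cytometry; analysed as GFP (500-530 nm)/RFP (575-640 nm) total intensity ratio; 0.5% DMSO vehicle.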
Numbers stand for hits; n = inactive; u = inconclusive; x = no result; ! = not active in a repeat; [ ] = dose if it differs, or a comment. Unless noted, calls come from the whole dose curve; as a rule, active = well fitted curve in the direction sought with a large enough effect; inconclusive = small, poorly fitted or top-dose-only effect, or another doubt; inactive = no such curve, though single readings can be large; an effect the other way counts as inactive or inconclusive.

SMILES	miR-21 reporter	ALDH1A1 block	Sfp inh	JMJD2E inh	G9a block	Lamin A splicing
Cn1c(=O)[nH]c(=O)c2c1nc(N1CCNCC1)n2Cc1ccccc1Cl	n	x	n	x	x	x
CC1CCCN(c2nc3c(c(=O)n(C)c(=O)n3C)n2Cc2ccccc2)C1 (stereo not drawn)	n	1.8µM	n	n	n	u
Cn1c(=O)[nH]c(=O)c2c1nc(N1CCC(Cc3ccccc3)CC1)n2Cc1ccccc1	n	10µM	n	n	n	n
Cc1ccc(NC(=O)Nc2ccc3c(c2)C(=O)OC3)cc1Cl	n	x	n	n	x	x
CC(C)C(C)NC(=O)COC(=O)c1cc(S(=O)(=O)N(C)C)ccc1N1CCCC1 (stereo not drawn)	n	u	n	n	n	n
Cc1cccc(-c2nc3c(C#N)c[nH]n3c2NC2CCCCC2)c1	n	x	x	x	u	x
O=C(CCC(=O)N1CCN(c2cccc(Cl)c2)CC1)N1CCN(c2ccccc2)CC1	n	x	n	x	x	x
O=C(C1CC1c1ccccc1)N1CCN(c2cccc(Cl)c2)CC1 (stereo not drawn)	n	20µM	n	n	n	u
Cc1ccc(-c2ccc(SCC(=O)N3CCN(c4ccccc4)CC3)nn2)cc1	n	n	n	n	n	n
O=C(CSc1ccc2nnc(-c3ccccn3)n2n1)N1CCN(c2ccccc2)CC1	n	n	n	n	50µM	n
O=C(CSc1ccc(-c2ccccc2)nn1)N1CCN(c2ccccc2)CC1	n	22µM	79µM	n	n	n
O=C(CSc1ccccc1C(=O)N1CCN(c2ccccc2)CC1)N1CCCC1	x	x	x	x	13µM	x
C=Cn1cc[n+](CC(=O)c2ccc(Cl)c(Cl)c2)c1	n	x	n	x	u	x
O=C(CSc1ccccn1)N1CCN(c2cccc(Cl)c2)CC1	n	u	50µM	n	2.8µM	u
O=C(CSc1ccccn1)N1CCN(c2ccccc2)CC1	n	n	n	n	u	n
CC(C)(C)C1CCc2c(sc(NC(=O)c3cc(C4CC4)on3)c2C#N)C1 (stereo not drawn)	n	u	n	u	79µM	n
CC(C)(C)C1CCc2c(sc(NC(=O)C3CC=CCC3C(=O)O)c2C#N)C1 (stereo not drawn)	n	7.1µM	n	n	n	u
O=C(NNc1cc(Cl)ccc1Cl)c1cccs1	n	1.9µM	u	n	56µM	x
Cc1noc(C)c1C(=O)NNc1cc(Cl)ccc1Cl	n	x	n	n	79µM	x
CC1CCC(NC(=O)CCCn2sc3ccccc3c2=O)CC1 (stereo not drawn)	n	x	n	x	22µM	x
O=C(CCCn1c(=O)[nH]c2ccccc2c1=O)NC1CCCCCC1	n	u	n	n	n	n
CCS(=O)(=O)Nc1ccc(-c2nnc(SCC(=O)c3cccc(OC)c3)o2)cc1	n	3.2µM	n	n	x	n
COc1cc(-c2nnc(SCc3c(F)cccc3Cl)o2)cc(OC)c1OC	n	4.5µM	n	n	n	u
COc1cc(-c2nnc(SCC(=O)c3ccc(C)cc3)o2)cc(OC)c1OC	n	28µM	n	n	n	n
COc1cc(-c2nnc(SCC(=O)N3CCOCC3)o2)cc(OC)c1OC	n	x	n	x	40µM	x
SMILES	miR-21 reporter	ALDH1A1 block	Sfp inh	JMJD2E inh	G9a block	Lamin A splicing
CC(OC(=O)Cc1cccc(C(F)(F)F)c1)C(=O)Nc1ccc(Cl)cn1 (stereo not drawn)	n	x	n	x	x	x
COc1cc(C(=O)NCc2nnc(SCC(=O)c3ccccc3)o2)cc(OC)c1OC	n	x	n	x	40µM	x
COc1cc(-c2nnc(SCC(=O)c3cc(C)n(CC4CCCO4)c3C)o2)cc(OC)c1OC (stereo not drawn)	n	u	89µM	u	n[12.7 µM]	n
CCOc1ccccc1NC(=O)Cn1c(=O)n(-c2ccc(Cl)cc2)c(=O)c2oc3ccccc3c21	n	x	x	x	n	x
CCc1cccc(CC)c1N(COC)C(=O)Cn1c(C(C)O)nc2ccccc21 (stereo not drawn)	n	n	89µM	n	n[2.33 µM]	n
O=C(CCCCn1c(=O)[nH]c2ccsc2c1=O)N1CCN(c2cccc(Cl)c2)CC1	u	x	x	x	n	x
Cc1noc(C)c1CSc1nc2ccccc2c(=O)n1-c1ccc(F)cc1F	n	8.9µM	n	n	n[12.7 µM]	n
COC(=O)c1ccc(CSc2nc3ccccc3c(=O)n2-c2ccccc2)o1	n	25µM	n	n	16µM	n
C=CCn1c(SCc2c(C)noc2C)nc2ccccc2c1=O	n	n	n	n	n	n
Cc1noc(C)c1CSc1nc2ccccc2c(=O)n1-c1ccccc1	n	4.5µM	n	n	n	n
Cc1noc(C)c1CSc1nc2[nH]ncc2c(=O)n1-c1ccccc1	n	1.3µM	n	n	n	u
O=C(CSc1nnc2ccc3ccccc3n12)c1ccc(F)cc1	n	x	x	x	n[12.7 µM]	n
Cc1nc(CSc2n[nH]c(=O)n2-c2ccccc2)cs1	n	n	n	n	x	x
Cc1nc(CSc2nc3[nH]ncc3c(=O)n2-c2ccccc2)cs1	n	13µM	n	n	n	n
COC(=O)c1ccc(CSc2nnc3n(Cc4ccccc4OC)c(=O)c4ccccc4n23)o1	n	u	n	n	45µM	n
Cc1ccc(C(=O)NNC(=O)CCCCC(=O)NNC(=O)c2ccc(C)cc2)cc1	n	x	n	x	x	x
Cc1nc2nc(NCc3ccc(Br)cc3)[nH]n2c(=O)c1Cc1ccccc1	n	x	x	x	u	x
O=C/C=C/c1ccc(O)cc1	x	3.5µM	n	28µM	x	n
CCOC(=O)N1CCN(C(=O)/C=C/c2ccc([N+](=O)[O-])cc2)CC1	n	n	n	n	n	n
COc1ccc(N2CCN(C(=O)CCNS(=O)(=O)c3cccs3)CC2)cc1	n	n	n	n	25µM	n
COc1ccc(N2CCN(C(=O)CCc3ccc(S(=O)(=O)NCC(C)C)cc3)CC2)cc1	n	13µM	n	n	7.1µM	u
O=C(c1cc2ccccc2o1)N1CCN(S(=O)(=O)c2cccs2)CC1	n	n	n	n	16µM	n
O=C(/C=C/c1ccc([N+](=O)[O-])cc1)N1CCN(S(=O)(=O)c2cccs2)CC1	n	n	n	n	50µM	u
O=C(COC(=O)C1=COCCO1)NCc1ccc(Cl)cc1	n	n	n	n	n	n
CC1=C(CC(=O)NCC(=O)NCC(=O)O)c2cc(F)ccc2/C1=C/c1ccc(S(C)=O)cc1 (stereo not drawn)	n	x	n	x	n	x
COc1ccc(CCN2CC(C(=O)NCc3cccc4[nH]ccc34)CCC2=O)cc1 (stereo not drawn)	n	x	n	x	n	x
Cc1ccc(S(=O)(=O)c2nc(-c3cccc(Cl)c3)oc2NCc2ccccc2)cc1	n	x	x	x	u	x
O=C(CCc1ccccc1)N1CCN(S(=O)(=O)c2cccs2)CC1	n	x	n	x	n	x
COc1ccc(N2CCN(C(=O)CN(C)S(=O)(=O)c3cccs3)CC2)cc1	n	x	n	x	50µM!	x
COc1ccc(CCC(=O)N2CCN(S(=O)(=O)c3cccs3)CC2)cc1	x	x	x	x	45µM	x
